System: HCT-116
Conditions: Homo sapiens

## COc1cc(NC(=O)C[C@@]2(C)C[C@H](c3cccc(Cl)c3)[C@@H](c3ccc(Cl)c(F)c3)N([C@H](CS(=O)(=O)C(C)(C)C)C3CC3)C2=O)ccc1C(=O)O
  TGI: Dose-dependent effect
